Key:
[1] = target: Acetylcholinesterase (Homo sapiens) (UniProt P22303); assay: Reactivation of VX-phosphylated human AChE in ChE-inactivated mouse plasma using acetylthiocholine as substrate upto 500 uM incubated for 30 mins by Ellman's method relative to control; settings: dose microM <=500, time 30.0 min
[2] = target: Acetylcholinesterase (Homo sapiens) (UniProt P22303); assay: Reactivation of NEMP-inhibited recombinant His-TEV-tagged human AChE expressed in CHO-K1 cells assessed as reactivation constant, KD by measuring thiophenol levels by UV-vis absorption spectroscopy; settings: filed as activator
[3] = target: Acetylcholinesterase (Homo sapiens) (UniProt P22303); assay: Reactivation of NIMP-inhibited recombinant His-TEV-tagged human AChE expressed in CHO-K1 cells assessed as reactivation constant, Kr by measuring thiophenol levels by UV-vis absorption spectroscopy; settings: filed as activator
[4] = target: Acetylcholinesterase (Homo sapiens) (UniProt P22303); assay: Reactivation of NIMP-inhibited recombinant His-TEV-tagged human AChE expressed in CHO-K1 cells assessed as reactivation constant, KD by measuring thiophenol levels by UV-vis absorption spectroscopy; settings: filed as activator
[5] = target: Acetylcholinesterase (Homo sapiens) (UniProt P22303); assay: Reactivation of NEDPA-inhibited recombinant His-TEV-tagged human AChE expressed in CHO-K1 cells assessed as reactivation constant, Kr2 by measuring thiophenol levels by UV-vis absorption spectroscopy; settings: filed as activator
[6] = target: Acetylcholinesterase (Homo sapiens) (UniProt P22303); assay: Inhibition of recombinant His-TEV-tagged human AChE expressed in CHO-K1 cells using acetylthiocholine iodide as substrate at 5 mM measured for 6 mins by Ellman's method relative to control

Chains of the proteins cited; added tags and fusions are not shown. Lines headed by an entry give the natural chain unless they say otherwise; changes in a name come on top.
UniProt P22303: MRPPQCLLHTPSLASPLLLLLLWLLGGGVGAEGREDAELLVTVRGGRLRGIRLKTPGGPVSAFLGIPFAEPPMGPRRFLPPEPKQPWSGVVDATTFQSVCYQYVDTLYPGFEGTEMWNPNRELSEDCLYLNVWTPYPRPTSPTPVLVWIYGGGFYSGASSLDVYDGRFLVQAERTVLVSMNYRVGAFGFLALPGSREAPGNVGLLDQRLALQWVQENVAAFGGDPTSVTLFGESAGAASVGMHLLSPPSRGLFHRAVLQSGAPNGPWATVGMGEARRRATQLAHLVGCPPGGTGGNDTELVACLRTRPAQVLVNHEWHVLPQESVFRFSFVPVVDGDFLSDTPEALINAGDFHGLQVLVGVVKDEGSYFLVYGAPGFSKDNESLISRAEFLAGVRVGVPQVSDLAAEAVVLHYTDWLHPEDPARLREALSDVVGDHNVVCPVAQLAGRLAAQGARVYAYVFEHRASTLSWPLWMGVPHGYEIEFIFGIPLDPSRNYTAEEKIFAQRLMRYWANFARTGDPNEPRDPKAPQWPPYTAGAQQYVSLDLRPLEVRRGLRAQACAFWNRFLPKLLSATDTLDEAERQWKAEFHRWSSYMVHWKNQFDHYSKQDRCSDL

SMILES	Emax [1] [%]	K [2] [mM]	K [3] [min⁻¹]	K [4] [mM]	K [5] [mM/min]	inhibition [6] [%]
OC[C@H]1O[C@H](OCCCCc2cn(CCCCc3ccc(O)c(/C=N/O)n3)nn2)[C@H](O)[C@@H](O)[C@@H]1O	3.3	1	0.4	2		
OC[C@H]1O[C@@H](OCCCc2ccc(O)c(/C=N/O)n2)[C@H](O)[C@@H](O)[C@@H]1O			0.2	2	2	
OC[C@H]1O[C@@H](OCCCCc2cn(CCCc3ccc(O)c(/C=N/O)n3)nn2)[C@H](O)[C@@H](O)[C@@H]1O			0.2	13		
OC[C@H]1O[C@@H](OCCCCc2cn(CCCCc3ccc(O)c(/C=N/O)n3)nn2)[C@H](O)[C@@H](O)[C@@H]1O	2.5	1	0.7	2		
C[n+]1ccccc1C=NO			0.24	0.2		
OC[C@H]1O[C@@H](OCCCCc2ccc(O)c(/C=N/O)n2)[C@H](O)[C@@H](O)[C@@H]1O			0.2	1		97
